Key:
Settings in all cases: saturation binding
human α1D-AR = human α1D-AR (Homo sapiens, UniProt P25100); experiment: Radioligand binding ([3H]prazosin) in HEK293 cells expressing human α1D-AR
human α1A-AR = biological target: T1, human α1A-AR (Homo sapiens, UniProt P35348); experiment: Radioligand binding ([3H]prazosin) in HEK293 cells expressing human α1A-AR
T1 sequence (P35348 1-466): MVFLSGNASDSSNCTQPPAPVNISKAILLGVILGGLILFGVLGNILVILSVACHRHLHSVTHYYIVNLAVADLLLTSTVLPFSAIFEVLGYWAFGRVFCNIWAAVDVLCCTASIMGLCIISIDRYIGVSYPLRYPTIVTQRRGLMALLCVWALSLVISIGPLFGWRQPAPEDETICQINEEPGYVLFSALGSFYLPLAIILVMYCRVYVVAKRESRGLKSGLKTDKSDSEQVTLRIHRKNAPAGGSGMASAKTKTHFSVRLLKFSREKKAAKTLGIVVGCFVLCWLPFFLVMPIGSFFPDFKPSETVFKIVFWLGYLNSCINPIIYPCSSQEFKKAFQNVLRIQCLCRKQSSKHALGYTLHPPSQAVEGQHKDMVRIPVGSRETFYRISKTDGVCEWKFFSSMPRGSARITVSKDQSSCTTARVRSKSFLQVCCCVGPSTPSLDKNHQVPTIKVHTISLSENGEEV

Amino acid sequences for entries named in this document (tags omitted).
UniProt P25100, whole entry: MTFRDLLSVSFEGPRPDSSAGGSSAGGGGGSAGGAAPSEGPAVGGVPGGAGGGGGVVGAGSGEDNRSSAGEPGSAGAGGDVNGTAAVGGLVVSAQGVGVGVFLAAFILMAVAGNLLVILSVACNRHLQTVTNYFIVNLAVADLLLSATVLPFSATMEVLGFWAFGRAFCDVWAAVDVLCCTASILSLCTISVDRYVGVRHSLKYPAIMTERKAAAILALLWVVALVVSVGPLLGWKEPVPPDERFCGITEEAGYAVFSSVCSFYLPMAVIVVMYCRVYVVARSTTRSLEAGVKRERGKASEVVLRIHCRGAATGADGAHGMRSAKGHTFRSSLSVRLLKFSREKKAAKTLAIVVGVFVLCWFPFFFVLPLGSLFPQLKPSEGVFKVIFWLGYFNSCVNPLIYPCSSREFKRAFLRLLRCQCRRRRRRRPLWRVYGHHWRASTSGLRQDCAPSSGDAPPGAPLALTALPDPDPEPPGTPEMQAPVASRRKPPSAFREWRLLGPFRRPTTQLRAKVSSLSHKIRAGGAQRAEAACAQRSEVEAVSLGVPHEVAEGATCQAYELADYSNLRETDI
UniProt P35368, whole entry: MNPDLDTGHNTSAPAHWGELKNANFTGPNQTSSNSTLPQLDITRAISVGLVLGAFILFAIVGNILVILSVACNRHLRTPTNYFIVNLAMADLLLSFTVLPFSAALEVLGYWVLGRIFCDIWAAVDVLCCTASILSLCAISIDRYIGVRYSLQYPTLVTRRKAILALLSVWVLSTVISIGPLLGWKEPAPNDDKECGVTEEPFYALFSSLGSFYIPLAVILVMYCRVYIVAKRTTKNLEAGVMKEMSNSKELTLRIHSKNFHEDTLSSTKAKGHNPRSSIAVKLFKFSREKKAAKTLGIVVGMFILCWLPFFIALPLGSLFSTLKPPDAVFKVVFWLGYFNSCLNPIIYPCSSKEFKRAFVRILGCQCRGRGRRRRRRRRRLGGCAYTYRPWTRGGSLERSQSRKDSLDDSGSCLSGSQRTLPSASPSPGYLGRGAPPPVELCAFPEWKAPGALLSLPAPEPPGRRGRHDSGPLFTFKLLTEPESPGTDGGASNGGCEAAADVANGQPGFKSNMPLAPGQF

human α1B-AR = human α1B-AR (Homo sapiens, UniProt P35368); experiment: Radioligand binding ([3H]prazosin) in HEK293 cells expressing human α1B-AR

With `COc1cc2nc(N3CCN(C(=O)c4ccco4)CC3)nc(N)c2cc1OC` [[^3H]prazosin] the “Bmax α1D” value (human α1D-AR) was 0.46±0.04 pmoles/mg protein, the “Bmax α1A” value (human α1A-AR) was 0.56±0.01 pmoles/mg protein and the “Bmax α1B” value (human α1B-AR) was 1.59±0.10 pmoles/mg protein.

Source: patent US7470703B1 (priority 2004, dated 2008)
